# Measurements taken from PubChem BioAssay AID540259 (Broad Institute, 2011).
# This is a selection; strong and weak results do not stand in their true shares. Results with a measured potency or affinity are listed apart. Active and inactive are the calls of the source.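 Rule for the calls: active = cell killing, meaning signal decrease, with fitted half-maximal dose at or below ten times the top valid tested dose; inconclusive = poor fit, or flat curve with 30 to 70% signal loss; inactive = the rest.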
# Assay: ATP-based viability loss in HeLa cells – cell-based, CellTiter-Glo luminescence, cherry-pick samples, cytotoxicity control for MITF activator project, dose response (AID 540259);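 note: 0% = DMSO neutral control and -100% = mitoxantrone positive control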
# Settings: 24 h; at 35 µM (top of the series)
smiles,measurement,value
Oc1ccc(/C=C/c2cc(O)cc(O)c2)cc1,"activity change, negative = cytotoxicity",inactive: 12.3%
